OPERA 2.9 data: Henry's law constant values

Source: data files of OPERA 2.9 (Mansouri et al.), github.com/kmansouri/OPERA.

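The numbers are reported measurements, compiled and curated for the OPERA QSAR suite. The files give a single number for a compound and property, which may rest on several reports. Conditions of the individual experiments are not part of the data. Where a salt, mixture or single isomer is drawn, the source does not say that exactly this form was tested. Some upstream entries may be estimates or bounds without being marked so.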

Henry's law constant (air-water partitioning) is log10 of atm·m3/mol, nominally at 25 °C.

* Cc1ccc(N=c2sccn2C)c(C)c1 [Cymiazole]: log H -7.463 (log10 atm·m3/mol)
* CCCCCCCCC=CCCCCCCCC(=O)O [Octadec-9-enoic acid]: log H -4.349 (log10 atm·m3/mol)
* CN1CCC[C@H]1c1cccnc1 [(-)-Nicotine]: log H -8.051 (log10 atm·m3/mol)
* NS(=O)(=O)c1cccs1 [2-Thiophenesulfonamide]: log H -10.68 (log10 atm·m3/mol)
* CC(C)C(O)(c1ccc(OC(F)(F)F)cc1)c1cncnc1 (centres undefined) [Flurprimidol]: log H -8.568 (log10 atm·m3/mol)
* O=C(O)c1cccc2cc(Cl)cnc12 [3-Chloroquinoline-8-carboxylic acid]: log H -3.153 (log10 atm·m3/mol)
* O=C(O)c1ccc(F)c(Oc2ccccc2)c1 [4-Fluoro-3-phenoxybenzoic acid]: log H -8.218 (log10 atm·m3/mol)
* O=C(OCc1ccccc1)c1sc(Cl)nc1C(F)(F)F [Flurazole]: log H -6.606 (log10 atm·m3/mol)
* CC(=O)CC(c1ccccc1)c1c(O)c2ccccc2oc1=O (centres undefined) [Warfarin]: log H -7.462 (log10 atm·m3/mol)
* CCOc1ccc(NC(=O)OC(C)C)cc1OCC [Diethofencarb]: log H -9.046 (log10 atm·m3/mol)
* CCc1cccc(C)c1N(COC(C)C)C(=O)CCl [Propisochlor]: log H -7.02 (log10 atm·m3/mol)
* CCCCCC(C)OC(=O)COc1ccc(Cl)c2cccnc12 (centres undefined) [Cloquintocet-mexyl]: log H -7.526 (log10 atm·m3/mol)
* CCN(CC)C(=O)SCc1ccccc1Cl [Orbencarb]: log H -5.882 (log10 atm·m3/mol)
* CCON=C(OC(=O)c1ccccc1)c1c(OC)ccc(Cl)c1OC [Benzoximate]: log H -7.269 (log10 atm·m3/mol)
* CC1(C)Oc2cccc(O)c2O1 [Bendiocarb phenol]: log H -8.298 (log10 atm·m3/mol)
* CCCC(=NOCC)C1=C(O)CC(C2CCCSC2)CC1=O (centres undefined) [Cycloxydim]: log H -9.218 (log10 atm·m3/mol)
* O=C1NC(=O)c2ccccc21 [Phthalimide]: log H -7.964 (log10 atm·m3/mol)
* CCCCCCCCCCCCCCCCCC(=O)OCCCC [Butyl octadecanoate]: log H -1.42 (log10 atm·m3/mol)
* CC[C@H]1O[C@]2(CC[C@@H]1C)C[C@@H]1C[C@@H](CC=C(C)C[C@@H](C)C=CC=C3CO[C@@H]4[C@H](O)C(C)=C[C@@H](C(=O)O1)[C@]34O)O2 [Milbemectin A4]: log H -6.594 (log10 atm·m3/mol)
* CCCCCCCCCCCCCCCCCC(=O)Cl [Octadecanoyl chloride]: log H -6.323 (log10 atm·m3/mol)
* COCCOc1ccccc1S(=O)(=O)NC(=O)Nc1nc(OC)nc(OC)n1 [Cinosulfuron]: log H -11.01 (log10 atm·m3/mol)
* C/C=C/C=C/CCCCCCCO [(8E,10E)-8,10-Dodecadien-1-ol]: log H -6.316 (log10 atm·m3/mol)
* CCS(=O)(=O)c1cccnc1S(N)(=O)=O [3-(Ethylsulfonyl)pyridine-2-sulfonamide]: log H -9.696 (log10 atm·m3/mol)
* CCC(C)S(=O)(=O)O (centres undefined) [2-Butanesulfonic acid]: log H -4.677 (log10 atm·m3/mol)
* CC(C)OC(=O)[C@@H](C)N(C(=O)c1ccccc1)c1ccc(F)c(Cl)c1 [Flamprop M-isopropyl]: log H -7.594 (log10 atm·m3/mol)
* CCNc1nc(NC(C)(C)C)nc(OC)n1 [Terbumeton]: log H -8.335 (log10 atm·m3/mol)
* O=C(O)COc1ccc(Cl)cc1CO [Cloxyfonac]: log H -5.949 (log10 atm·m3/mol)
* Cc1cccc(C)c1N(C(=O)CCl)C1CCOC1=O (centres undefined): log H -9.415 (log10 atm·m3/mol)
* CC(C)(SC(=O)N1CCCCC1)c1ccccc1 [Dimepiperate]: log H -7.159 (log10 atm·m3/mol)
* Nc1cc(Cl)c(N)c(Cl)c1 [2,6-Dichloro-1,4-benzenediamine]: log H -9.827 (log10 atm·m3/mol)
* NC(N)=S [Thiourea]: log H -8.703 (log10 atm·m3/mol)
* CC(=O)Nc1cc(NS(=O)(=O)C(F)(F)F)c(C)cc1C [Mefluidide]: log H -6.77 (log10 atm·m3/mol)
* Nc1c(Cl)c(F)[nH]c(=O)c1Cl [4-Amino-3,5-dichloro-6-fluoro-2-pyridone]: log H -6.964 (log10 atm·m3/mol)
* COC(=O)c1ccccc1S(=O)(=O)NC(=O)Nc1nc(OC(F)F)cc(OC(F)F)n1 [Primisulfuron-methyl]: log H -6.404 (log10 atm·m3/mol)
* C#CCOc1cc(-n2nc(C(C)(C)C)oc2=O)c(Cl)cc1Cl [Oxadiargyl]: log H -8.047 (log10 atm·m3/mol)
* CCCN(CCC)C(=O)SCC [EPTC]: log H -10.31 (log10 atm·m3/mol)
* CCC(C)c1cnccn1 (centres undefined) [2-(1-Methylpropyl)pyrazine]: log H -5.31 (log10 atm·m3/mol)
* COc1cc(OC)nc(NC(=O)NS(=O)(=O)N(C)S(C)(=O)=O)n1 [Amidosulfuron]: log H -8.288 (log10 atm·m3/mol)
* Cc1cc(=O)nc(C(C)C)[nH]1 [2-Isopropyl-6-methyl-4-pyrimidone]: log H -7.225 (log10 atm·m3/mol)
* CCOC(=O)[C@@H](C)Oc1ccc(Oc2cnc3cc(Cl)ccc3n2)cc1 [Quizalofop-p-ethyl]: log H -9.18 (log10 atm·m3/mol)